# Patent US20260335456A1, “ANTIBODY-DRUG CONJUGATE HAVING CAMPTOTHECIN-BASED DRUG LINKED TO ANTIBODY HAVING LOW ANTIGEN-BINDING AFFINITY THROUGH LINKER” (PINOTBIO, INC., priority 2022, published 2026)
# B1: Nimotuzumab ADC: nimotuzumab ADC of FIG. 19, linker-payload not stated in the text (conjugate, chains of the INN, looked up)
# heavy: QVQLQQSGAEVKKPGSSVKVSCKASGYTFTNYYIYWVRQAPGQGLEWIGGINPTSGGSNFNEKFKTRVTITADESSTTAYMELSSLRSEDTAFYFCTRQGLWFDSDGRGFDFWGQGTTVTVSSASTKGPSVFPLAPSSKSTSGGTAALGCLVKDYFPEPVTVSWNSGALTSGVHTFPAVLQSSGLYSLSSVVTVPSSSLGTQTYICNVNHKPSNTKVDKKV[in this place human IgG1 Fc]
# light: DIQMTQSPSSLSASVGDRVTITCRSSQNIVHSNGNTYLDWYQQTPGKAPKLLIYKVSNRFSGVPSRFSGSGSGTDFTFTISSLQPEDIATYYCFQYSHVPWTFGQGTKLQITRTVAAPSVFIFPPSDEQLKSGTASVVCLLNNFYPREAKVQWKVDNALQSGNSQESVTEQDSKDSTYSLSSTLTLSKADYEKHKVYACEVTHQGLSSPVTKSFNRGEC
# modifications: drug conjugate, linker-payload unstated
# B2: Nimotuzumab-25-6: nimotuzumab ADC with linker-payload 25-6 (conjugate, chains of the INN, looked up)
# heavy: B1 heavy
# light: B1 light
# modifications: linker-payload 25-6
# Assays:
# [1] = tested on: EGFR positive (MDA-MB-468) and negative (SW620) cells; experiment: In vitro assay of nimotuzumab/cetuximab ADCs in EGFR positive and negative cells; format: cell-based; settings: FIG. 19
# MDA-MB-468 tumor model = experiment: In vivo efficacy in MDA-MB-468 model (EGFR ADCs); parameters: species or system mouse; settings: FIG. 23
Molecule,discrimination of positive and negative cell lines / ADC performance [1],tumor regression versus Nimotuzumab-19-1 (MDA-MB-468 tumor model)
B1,did not show performance as an ADC,–
B2,–,superior tumor regression than Nimotuzumab-19-1
